Consider one compound from patent US20090192077A1, “North-2'deoxy -methanocarbathymidines as antiviral agents for treatment of kaposi's sarcoma-associated herpes virus” (priority 2005, published 2009).

For the assay, the target named is T1, recombinant KSHV DNA polymerase (rPOL) and polymerase processivity factor (rPPF) (Human herpesvirus 8 type P, UniProt Q2HRD0).
T1 sequence (Q2HRD0 1-1012): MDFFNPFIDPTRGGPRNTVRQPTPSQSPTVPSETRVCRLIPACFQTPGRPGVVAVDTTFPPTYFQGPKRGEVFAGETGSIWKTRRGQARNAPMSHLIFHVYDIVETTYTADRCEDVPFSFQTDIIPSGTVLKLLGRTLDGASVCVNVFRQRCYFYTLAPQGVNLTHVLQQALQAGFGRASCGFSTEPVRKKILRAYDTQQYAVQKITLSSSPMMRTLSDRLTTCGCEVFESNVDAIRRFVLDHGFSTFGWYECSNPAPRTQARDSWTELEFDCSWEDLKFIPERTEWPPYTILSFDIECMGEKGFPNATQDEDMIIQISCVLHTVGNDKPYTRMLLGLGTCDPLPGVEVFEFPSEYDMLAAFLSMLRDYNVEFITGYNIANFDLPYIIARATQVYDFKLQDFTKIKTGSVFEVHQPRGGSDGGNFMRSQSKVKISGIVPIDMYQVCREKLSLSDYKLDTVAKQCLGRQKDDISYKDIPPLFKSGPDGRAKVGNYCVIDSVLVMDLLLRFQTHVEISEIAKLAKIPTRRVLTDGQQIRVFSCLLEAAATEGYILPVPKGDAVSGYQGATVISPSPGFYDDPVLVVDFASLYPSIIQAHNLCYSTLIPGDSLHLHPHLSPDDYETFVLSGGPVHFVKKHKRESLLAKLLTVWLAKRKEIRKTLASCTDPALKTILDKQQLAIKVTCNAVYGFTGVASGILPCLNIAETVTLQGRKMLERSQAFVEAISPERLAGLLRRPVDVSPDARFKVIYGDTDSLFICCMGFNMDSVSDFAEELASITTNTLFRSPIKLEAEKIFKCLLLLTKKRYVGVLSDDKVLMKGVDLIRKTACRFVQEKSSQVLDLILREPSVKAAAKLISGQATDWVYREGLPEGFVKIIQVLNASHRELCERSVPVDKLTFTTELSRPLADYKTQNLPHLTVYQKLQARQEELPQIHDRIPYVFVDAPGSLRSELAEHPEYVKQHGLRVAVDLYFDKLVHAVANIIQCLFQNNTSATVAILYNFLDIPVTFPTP
T1 sequence (F5HID2 1-396 partner): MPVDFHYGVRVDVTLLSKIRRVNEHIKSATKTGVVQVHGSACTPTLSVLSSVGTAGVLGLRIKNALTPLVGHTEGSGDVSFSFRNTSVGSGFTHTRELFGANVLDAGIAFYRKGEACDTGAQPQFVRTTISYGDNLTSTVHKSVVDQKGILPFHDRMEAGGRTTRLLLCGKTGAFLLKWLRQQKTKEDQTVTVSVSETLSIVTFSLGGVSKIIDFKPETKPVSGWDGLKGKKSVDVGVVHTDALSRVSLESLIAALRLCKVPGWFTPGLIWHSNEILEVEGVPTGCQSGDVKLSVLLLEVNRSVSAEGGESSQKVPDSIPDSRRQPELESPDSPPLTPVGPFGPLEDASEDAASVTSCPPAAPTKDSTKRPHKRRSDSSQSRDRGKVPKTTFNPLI
As to the kind of experiment: biochemical. As to the method:
KSHV rPOL and rPPF were expressed and purified from the recombinant baculovirus-vector infected Sf9 cells (Dorjsuren, D. et al. 2003 Protein Expr Purif 29:42-50). […] The amounts of newly synthesized DNA, which incorporated DIG-dUTP, were determined by the DIG detection kit (Roche Applied Science) according to the manufacturer's instructions.

In general, IC50 refers to the concentration needed to halve the response being measured. Consider `Cc1cn([C@H]2C[C@H](O)[C@]3(COP(=O)(O)OP(=O)(O)OP(=O)(O)O)C[C@H]23)c(=O)[nH]c1=O` [N-MCT-TP, North-methanocarbathymidine triphosphate], for which the IC50 was 6.24 ± 0.08 µM. Where the note is “read-out: IC90, KSHV rPOL/rPPF-mediated DNA synthesis”, the IC90 turned out to be 76.5 ± 14 µM. Moreover, the “% inhibition of DNA synthesis reached” value (within the concentrations tested (up to 500 μM)) is listed as “greater than 90%”.
